Experimental data as given in patent US5929226A, “Antisense oligonucleotide alkylphosphonothioates and arylphospohonothioates” (dated 1999).

Legend:
[1] = Stability in animals (data not shown); settings: result in words
[2] = test system: snake venom phosphodiesterase; test: Relative resistance to 3' exonucleolytic degradation by snake venom phosphodiesterase (hyperchromicity at A260); settings: snake venom phosphodiesterase 1.5 milliunits, 37° C.

**Q.** What does the source list for ACACCCAATTCTGAAAATGG?
**A.** stability in animals [1]: is not; t1/2 ([2]; pH 8.5): 44 s; % increase in hyperchromicity ([2]; pH 8.5, A260): 22.56%
